Measured affinities in a library of Ab-14 light chain variants

Reference: Engelhart et al. 2022, doi:10.1038/s41597-022-01779-4. File: FLAb, binding data.

Binding partner: SARS-CoV-2 spike HR2 peptide, sequence PDVDLGDISGINAS.

Ab-14 is the parent antibody, in scFv form: VH, then a (GGGGS)3 linker, then VL. The heavy chain is unchanged in all variants.
VH: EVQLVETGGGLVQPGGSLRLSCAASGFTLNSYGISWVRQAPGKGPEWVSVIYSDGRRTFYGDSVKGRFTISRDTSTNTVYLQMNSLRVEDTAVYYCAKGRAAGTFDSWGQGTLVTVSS
VL: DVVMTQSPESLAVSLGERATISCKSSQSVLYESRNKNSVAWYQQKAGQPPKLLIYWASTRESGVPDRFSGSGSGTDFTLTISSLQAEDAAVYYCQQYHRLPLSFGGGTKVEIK

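In library AAYL50, one, two or three CDR residues were substituted; doubles and triples were drawn at random. Affinity was read by AlphaSeq, a pooled yeast mating assay with surface-displayed partners. After mating in shaken culture at 30 °C for 16 h, diploids were selected and their barcode pairs sequenced. The ratio of observed to expected reads was calibrated, replicate by replicate, on BCL2-family standards whose Kd was known from biolayer interferometry. Each pool was mated in three replicate cultures.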

Each variant is given by its three light chain CDRs, as the data file delimits them; those of the parent are KSSQSVLYESRNKNSVA, WASTRES, QQYHRLPLS. The read-out is the apparent dissociation constant on a log10 scale (nM): the lower, the stronger. The mean shown is taken over the replicates in which the pair was detected. Where no diploid with the target was found in that replicate, the entry reads "nd": below detection, most likely a poor binder, though not proof of it.

| CDR-L1 | CDR-L2 | CDR-L3 | log10 Kd, replicates | mean, log10 nM | empty controls |
|---|---|---|---|---|---|
| KSSQSVLYESRNKNSVA | WAATRES | QQHHRLLLS | nd / nd / nd | nd | 1/9 (3.73) |
| KSSQSVLYESRNKNSFA | EASTRES | QQYHRLILS | 1.00 / 1.28 / 1.33 | 1.20 | 0/9 |
| KSSISVLYESRNKNSVA | WPKTRES | QQYHRLPLS | nd / nd / nd | nd | 0/9 |
| KSSQSVLYESRNCNSKA | WASTRES | QQYQRLPLS | 5.26 / nd / 4.34 | 4.80 | 1/9 (3.31) |
| KSSQYVLYESRNKNSVA | WASTRES | EQYHRLPLS | 1.76 / 1.72 / 1.75 | 1.74 | 8/9 (4.79) |
| KSSQSVHYEWRNKNSVM | WASTRES | QQYHRLPLS | nd / nd / nd | nd | 2/9 (4.33) |
| KSSQFPLYESRNKNSVA | WASTRES | QQYHFLPLS | 2.06 / 2.09 / 2.76 | 2.30 | 1/9 (4.28) |
| KSSQSFLYPSRNKNSVA | EASTRES | QQYHRLPLS | -0.50 / -0.03 / -0.25 | -0.26 | 0/9 |
| KSEMSVLYESRNKNSVA | WASTRES | QQYHRLPLM | 0.97 / 0.93 / 1.01 | 0.97 | 0/9 |
| KSSQSVLYESRNKNSVA | WACTREW | QQYHRLPLS | 3.23 / 2.80 / 2.98 | 3.00 | 0/9 |
| KSSQSVLYEMRNKNSNA | WASTTES | QQYHRLPLS | nd / nd / nd | nd | 0/9 |
| KSSQSVLYESRNVNSVA | RASTRES | QQYHRLSLS | 3.87 / nd / nd | 3.87 | 0/9 |
| KSSQSVLYESRNKNSVA | WASTRIL | QQRHRLPLS | nd / nd / nd | nd | 0/9 |
| KSSQSVLYESRNENSVA | WASRRES | QQYHRVPLS | nd / nd / nd | nd | 0/9 |
| KSSMSVLYESRNKNSVA | WAPGRES | QQYHRLPLS | 6.17 / 4.79 / 4.03 | 5.00 | 3/9 (4.09) |
| KSSQSVLYESRNQREVA | WASTRES | QQYHRLPLS | 1.70 / 1.84 / 1.83 | 1.79 | 5/9 (4.13) |
| KSSQSVLYESPNKNSVA | WASNRCS | QQYHRLPLS | 0.84 / 0.87 / 0.72 | 0.81 | 1/9 (4.00) |
| VSSQSVLYESRNKNSVA | TASTRES | QQYHLLPLS | 1.84 / 2.79 / 2.26 | 2.30 | 1/9 (3.47) |
| KSSQVVLYEVRNKNSVA | WASTRES | QQYHRTPLS | nd / 3.56 / nd | 3.56 | 3/9 (4.67) |
| KSSQSHLYESRNKDSVA | WASTRES | QQYHRLALS | 1.09 / 1.11 / 1.33 | 1.18 | 3/9 (3.54) |
| KSSQSVLWESRNKNSVP | WASTHES | QQYHRLPLS | nd / nd / nd | nd | 1/9 (3.65) |
| KSSQSVLYESRNKNSVA | EAFTEES | QQYHRLPLS | nd / 4.02 / nd | 4.02 | 0/9 |
| KSSQSVLYESHNKVSVA | WAHTRES | QQYHRLPLS | nd / nd / nd | nd | 1/9 (3.15) |
| FSSQSVPYESRNKNSVA | WAFTRES | QQYHRLPLS | nd / 2.93 / nd | 2.93 | 1/9 (3.33) |
| KSSQSKLYESRNKNSVA | WASTRQS | QQYERLPLS | nd / nd / nd | nd | 1/9 (2.55) |
| ESSQSVLYESRNKKSVA | WASTRES | QQGHRLPLS | nd / 1.82 / nd | 1.82 | 0/9 |
| MSSQSVNYESRNKNSVA | WASTRES | QQYHRLPKS | 3.31 / 3.19 / 2.41 | 2.97 | 2/9 (4.08) |
| KSSQSVLYESRNKNSVA | WTSTLES | QQYHRLPES | nd / nd / nd | nd | 2/9 (4.12) |
| KASQSVLYESRNKNSVA | WASTYES | QQYQRLPLS | 5.99 / nd / nd | 5.99 | 0/9 |
| KSSQSVLSESRNKCSVA | WASTRES | QQYHRLPLS | 1.14 / 1.04 / 1.17 | 1.12 | 0/9 |
| KSSQSVLYESRNYNSCA | WASTRES | QQYHTLPLS | 4.54 / 2.45 / 4.24 | 3.75 | 4/9 (4.08) |
| KSSQSVGYESRNKNSVA | WASTRES | QQYHRLPLS | 1.42 / 1.32 / 1.21 | 1.32 | 3/9 (4.00) |
| KSSQSVLYEHRNKNHVA | WASTRER | QQYHRLPLS | 4.46 / 4.27 / 3.22 | 3.98 | 3/9 (4.08) |
| KSSQSVLYESRNKVSVA | WASTRES | QQYHRLAES | nd / nd / nd | nd | 0/9 |
| KSHQSVLYESRNKNSVA | WASTRES | QQYWRLPLY | 1.26 / 1.56 / 1.96 | 1.59 | 0/9 |
| KSSQSVLCESRNKNSVA | WASTRES | QDYHRMPLS | 3.23 / 2.06 / 2.90 | 2.73 | 0/9 |
| KSSQSVLYESRNKNAVA | GASTRFS | QQYHRLPLS | 0.22 / 0.51 / 0.43 | 0.39 | 2/9 (4.42) |
| KSSQSLLYESRNKNSVA | WDSTREE | QQYHRLPLS | 0.73 / 0.72 / 0.61 | 0.69 | 1/9 (5.79) |
| KSSQSVLYESRNKNSVA | WASTRES | QQGHRLPSS | 0.82 / 0.95 / 0.96 | 0.91 | 3/9 (4.55) |
| KSSQSVLYESRPKNSLA | WASTREM | QQYHRLPLS | 2.72 / 2.45 / nd | 2.59 | 0/9 |
| KSSQSVLYESRNKNSVA | WASTRMS | QQYHFLPLS | nd / nd / nd | nd | 1/9 (2.43) |
| KSSQSVWYESRNKNSVA | WASTRCS | QQYHRLPRS | nd / nd / nd | nd | 1/9 (3.17) |
| KSSQSVLYESRNKPSVA | WASTRES | QQYHRMRLS | nd / nd / nd | nd | 0/9 |
| FSSQSVLYELRNKNSVA | WASTREG | QQYHRLPLS | nd / nd / 4.77 | 4.77 | 2/9 (4.67) |
| KSSVSVLYESRNKDSVA | WASTREF | QQYHRLPLS | nd / nd / nd | nd | 0/9 |
| KNSQSVLYESRNKNSVA | WASTRES | QQYHRLTLS | nd / nd / nd | nd | 1/9 (3.02) |
| KSSQSVLRESRDKNSVA | WASTRES | QQYHRLPLS | -0.20 / 0.55 / 0.49 | 0.28 | 0/9 |
| KSSQSVLYESRRKNWVQ | WASTRES | QQYHRLPLS | nd / nd / nd | nd | 0/9 |
| KSSQSVLLESRNKNSVA | WASTRES | QQYWRLPLS | 1.22 / 1.24 / 1.39 | 1.28 | 4/9 (4.57) |
| KSSQSVLYEWRNKNKVA | WASTRES | QQYHRLPLS | 2.64 / nd / nd | 2.64 | 1/9 (3.14) |

Parent in this assay: reference entry 0.65, copy in this library 1.68. As a blank, each scFv also met three strains without target: over library AAYL50, 18% of these pairings were detected, typically at 4.19 and seldom below 2.99. Also given: how often the same scFv was detected with the empty control strains, with their mean in brackets.